The record followed here is patent US20210230248A1, “Multivalent pharmacophores for high avidity and overexpressed-target specific binding and uses thereof” (priority 2020, published 2021).

The target of assay [1] is T1, low PD-L1 expressing PC3 cells (Homo sapiens).
T1 construct: endogenous in cells; host or cells: PC3 cells
In words: Competitive binding assay on low PD-L1 expressing PC3 cells (control). Conditions: data not shown. From the text: (§1) PC3, a low PD-L1 expressing cell is used as a control.

In another assay the target is T2, Human recombinant PD-L2 (Homo sapiens, UniProt Q9BQ51).
T2 construct: purchased Abcam
T2 sequence (Q9BQ51 20-273): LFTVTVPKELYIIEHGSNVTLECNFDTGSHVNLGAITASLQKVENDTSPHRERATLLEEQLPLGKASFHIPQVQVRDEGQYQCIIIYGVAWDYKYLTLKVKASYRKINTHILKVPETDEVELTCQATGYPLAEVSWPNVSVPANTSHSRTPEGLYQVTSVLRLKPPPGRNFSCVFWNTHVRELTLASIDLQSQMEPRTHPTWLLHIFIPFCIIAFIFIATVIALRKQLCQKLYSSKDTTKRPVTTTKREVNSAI
In words: Binding to PD-L2 coated MSD plate. Conditions: test items at 5 nM; plate coated at 40 nM; FIG. 4B. The protocol: Human recombinant PD-L1, PD-L2 and CD80 (Abcam) at the concentration of 40 nM were coated onto wells of 96-well MSD plate (small spot, 40 μL/well) overnight at 4° C., and then blocked with 3% MSD Blocking Buffer for 1 h. […] The plates were shaken for another 1 h at room temperature. After washing, SULFO-TAG anti-mouse IgG antibody was added into the plates. The plates were further incubated for 1 h and then washed and read after adding 1×MSD Read Buffer. SULFO-TAG anti-human IgG antibody was added into the plate of PD-L1 Fc chimera proteins. The wells without coating were used as background binding.

In assay [2] the target is T3, Human recombinant PD-L1 (Homo sapiens).
T3 construct: purchased Abcam
Briefly: Selective binding to high-density PD-L1 coated plates. Conditions: 5 nM; PD-L1 coating from 80 nM, 1:1 dilution, 8 titrations; FIG. 5. As to the method: Human recombinant PD-L1 was coated onto wells of MSD 96-well plate with the concentrations starting from 80 nM and 1:1 dilution for 8 titrations (40 μL/well). The empty wells were added with PBS. After overnight coating at 4° C. and blocked with 3% MSD Blocking Buffer for 1 h, 4-arm PEG-2K PD-1ecto, 4-arm PEG-6K PD-1ecto, 6-arm PEG-3.4K PD-1ecto, and 6-arm PEG-10K PD-1ecto (all at 5 nM, 40 μL/well) were added into the pre-coated wells. Biotin conjugated anti-human PD-L1 antibody (clone 10F.9G2, Biolegend) was used as a control. […] After additional 1 h incubation at room temperature and washing, SULFO-TAG anti-mouse IgG antibody was added and the plate was incubated for 1 h. The plate was washed and read after adding 1× Read Buffer. For control wells (clone 10F.9G2), SULFO-TAG streptavidin was added.

For another assay, the system named is Human recombinant CD80. Briefly: Binding to CD80 coated MSD plate. Conditions: competitive binding against CD80 to PD-L1. As to the method:
(§2) The plates were shaken for another 1 h at room temperature. After washing, SULFO-TAG anti-mouse IgG antibody was added into the plates. The plates were further incubated for 1 h and then washed and read after adding 1×MSD Read Buffer. […] The wells without coating were used as background binding.

Assay [3] addresses T3, Human recombinant PD-L1 (Homo sapiens). In words: Binding to PD-L1 coated MSD plate. Conditions: test items at 5 nM; plate coated at 40 nM; FIG. 4A. The protocol: as §2
The target of assay [4] is T4, PD-L1 overexpressing SU-DHL-1 cells (Homo sapiens).
T4 construct: endogenous in cells; host or cells: SU-DHL-1 cells
In words: Competitive binding assay on PD-L1 overexpressing SU-DHL-1 cells. The note with it: antibody at ~33.3 nM, assuming linear relationship. As to the method: as §1
PE-conjugated mouse anti-human PD-L1 antibody (Clone MIN1, eBioscience) at the final concentration of 0.5 μg/100 μL (˜33.3 nM) was mixed with 4-arm PEG-2K PD-1ecto or 6-arm PEG-3.4K PD-1ecto titrated from 50 nM to 1 nM in Stain Buffer. SU-DHL-1 cells (0.5×10^6 cells) were resuspended in each titration of reagent in a final volume of 100 μL per well. After incubation for 3 h on ice with occasional mixing, the cells were washed 3 times. The amount of anti-PD-L1 antibody bound to the cells was quantified by the fluorescence intensity of PE using flow cytometry.

B1: 4-arm PEG PD-1ecto: tetravalent PEG PD-1 ectodomain pharmacophore, arm length not stated at the place (2K and 6K forms made) (conjugate)
chain: PGWFLDSPDRPWNPPTFSPALLVVTEGDNATFTCSFSNTSESFVLNWYRMSPSNQTDKLAAFPEDRSQPGQDCRFRVTQLPNGRDFHMSVVRARRNDSGTYLCGAISLAPKAQIKESLRAELRVTERRAEVPTAHPSPSPRPAGQFQTL
Consider B1, for which, in assay [1], the “binding to low PD-L1 expressing PC3 cells” value was “undetectable” and the “competitive binding against PD-L1 blocking antibody on PC3 cells” value is “little competitive binding”. The “binding to PD-L2 coated plate” value with Human recombinant PD-L2 is “bound”. Further, in assay [2], the “binding as a function of PD-L1 surface density” value is reported as “strongly selective binding to high surface density of PD-L1”. Further, in the assay on Human recombinant CD80, the “inhibition of PD-L1 Fc chimera binding to CD80 plate” value was “substantially inhibited”. Further, the “binding to PD-L1 coated plate” value in assay [3] was “bound”.

B2: 6-arm PEG PD-1ecto: hexavalent PEG PD-1 ectodomain pharmacophore, arm length not stated at the place (3.4K and 10K forms made) (conjugate)
chain: PGWFLDSPDRPWNPPTFSPALLVVTEGDNATFTCSFSNTSESFVLNWYRMSPSNQTDKLAAFPEDRSQPGQDCRFRVTQLPNGRDFHMSVVRARRNDSGTYLCGAISLAPKAQIKESLRAELRVTERRAEVPTAHPSPSPRPAGQFQTL
As to B2, in assay [1], the “binding to low PD-L1 expressing PC3 cells” value was “undetectable” and the “competitive binding against PD-L1 blocking antibody on PC3 cells” value is listed as “little competitive binding”. In addition, the “binding to PD-L2 coated plate” value in the assay with Human recombinant PD-L2 was “highest binding”. Besides, the “binding as a function of PD-L1 surface density” value in assay [2] is on record as “strongly selective binding to high surface density of PD-L1”. Also, the “fold more potent than the PD-L1 blocking antibody” value in assay [4] is “about 3.8 fold”. The “binding to PD-L1 coated plate” value in assay [3] is recorded as “highest binding”.
